Values quoted from earlier work in PMC11019746, “Illuminating Neuropeptide Y Y4 Receptor Binding: Fluorescent Cyclic Peptides with Subnanomolar Binding Affinity as Novel Molecular Tools” (ACS Pharmacology & Translational Science, 2024).

By UniProt entry, the sequences of proteins in these tests, tags left out. Where a name states a change or a piece, a line headed by the entry shows the natural chain unless it says otherwise.
UniProt Q15761: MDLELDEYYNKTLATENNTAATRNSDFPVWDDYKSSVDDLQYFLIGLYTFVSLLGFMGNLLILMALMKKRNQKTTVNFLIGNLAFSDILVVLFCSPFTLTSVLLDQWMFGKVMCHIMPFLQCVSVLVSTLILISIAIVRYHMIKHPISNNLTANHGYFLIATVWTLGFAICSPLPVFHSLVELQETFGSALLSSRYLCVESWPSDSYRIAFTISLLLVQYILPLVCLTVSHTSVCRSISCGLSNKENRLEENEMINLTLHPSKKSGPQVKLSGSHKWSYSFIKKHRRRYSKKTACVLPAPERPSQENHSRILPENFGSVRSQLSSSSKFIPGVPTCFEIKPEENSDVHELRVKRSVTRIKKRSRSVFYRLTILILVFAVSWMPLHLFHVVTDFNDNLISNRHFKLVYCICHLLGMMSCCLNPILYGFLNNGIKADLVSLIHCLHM

What was measured:
Conditions in all cases: cited from earlier work
[1] = biological target: Y4 receptor (Homo sapiens) (UniProt P50391)
[2] = biological target: Sulfo-Cy5-[K4,Nle17,30]hPP (1) (Homo sapiens) (UniProt P01298)
[3] = biological target: [3H]propionyl-pNPY (Sus scrofa) (UniProt P01304); experiment: radioligand binding

Sulfo-Cy5-[K4,Nle17,30]hPP (1) (from UniProt P01298)
Kd [1]: 11 nM

Y4 receptor (from UniProt P50391)
Kd [2]: 11 nM

Y5 receptor (from UniProt Q15761)
Kd [3]: 11 nM
